{"source": "patent US20040009197A1", "about": "(priority 2000, published 2004)", "experiment": "UV spectrum: absorption maxima, molar extinction coefficient and K value", "format": "physicochemical", "settings": "Solvent system Ethanol", "data": [{"substance": "Diethanolamine methoxy hydroxycinnamate", "values": [{"measurement": "Max ads.", "value": 285}]}]}
